Laboratory results: BindingDB's records for patent US8987315 (Innocrin Pharmaceuticals, 2015)

Amino acid sequences for entries named in this document (tags omitted).
UniProt P08684, whole entry: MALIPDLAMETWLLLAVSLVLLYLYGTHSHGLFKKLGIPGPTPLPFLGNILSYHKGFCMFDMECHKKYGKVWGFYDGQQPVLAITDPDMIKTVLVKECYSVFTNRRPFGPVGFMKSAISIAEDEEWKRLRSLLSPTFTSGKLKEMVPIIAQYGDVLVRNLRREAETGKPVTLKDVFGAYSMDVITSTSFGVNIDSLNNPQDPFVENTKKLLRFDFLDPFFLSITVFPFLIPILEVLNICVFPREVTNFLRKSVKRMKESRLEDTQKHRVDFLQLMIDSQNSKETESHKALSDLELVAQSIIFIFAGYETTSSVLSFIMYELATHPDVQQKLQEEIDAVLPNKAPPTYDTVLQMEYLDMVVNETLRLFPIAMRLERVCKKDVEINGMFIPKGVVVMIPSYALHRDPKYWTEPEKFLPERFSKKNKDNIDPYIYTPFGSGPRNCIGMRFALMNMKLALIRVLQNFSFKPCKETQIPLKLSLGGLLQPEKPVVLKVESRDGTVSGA

Molecular target: Cytochrome P450 3A4 (Homo sapiens, UniProt P08684)

| Compound | IC50 [µM] |
| --- | --- |
| CC(C)C(c1ccc2cc(OCC(F)(F)F)ccc2c1)n1ncnn1 (configuration not stated) [US8987315, 2] | > 60 |
| CC(C)C(c1ccc2cc(OC(F)F)ccc2c1)n1ncnn1 (configuration not stated) [US8987315, 4] | > 200 |
